{
  "source": "patent US8975259B2",
  "about": "“Compositions and methods for inhibiting G protein signaling” (University of Rochester, priority 2007, dated 2015)",
  "key": {"Gβ1γ2 [1]": {"biological_target": "T1, Gβ1γ2 (UniProt P54311+P63212)", "test": "Competition phage ELISA: inhibition of SIGK-phage binding to immobilized biotinylated Gβ1γ2", "set-up": "species or system rat"}, "PLCβ2": {"system": "PLCβ2", "test": "Gβ1γ2-dependent activation of purified PLCβ2", "conditions": "for effect on Gβ1γ2-dependent activation of PLCβ2: result in words"}, "PLCβ3": {"system": "PLCβ3", "test": "Gβ1γ2-dependent activation of purified PLCβ3"}, "PI3Kγ": {"system": "PI3Kγ", "conditions": "read-out: IC50 for inhibition of Gβγ-dependent PI3Kγ regulation"}, "[2]": {"system": "GFP-PHAkt translocation (PI3Kγ activation) in HL60 cells", "test": "fMLP-dependent GFP-PH-Akt translocation in differentiated HL60 cells", "conditions": "10 μM compound; result in words"}, "[3]": {"system": "fMLP-dependent Ca2+ release in differentiated HL60 cells", "test": "fMLP-dependent Ca2+ release in fura-2 loaded DMSO-differentiated HL60 cells", "conditions": "10 μM compound, 250 nM fMLP; result in words"}, "[4]": {"system": "ERK1 and ERK2 activation in differentiated HL60 cells", "conditions": "10 μM compound, 1 μM fMLP, result in words"}, "Gβ1γ2 [5]": {"biological_target": "T1, Gβ1γ2", "conditions": "read-out: IC50 ELISA; Table 20, competition ELISA for SIGK binding; data from Bonacci et al. (2006); cited from earlier work"}, "[6]": {"conditions": "read-out: IC50 μM, Table 18, compounds identified in Elisa screen"}},
  "note": "Where two headings read alike, the source gives them in different places.",
  "data": [
    {"smiles": "Ic1ccc2c(c1)N(c1ccccc1)c1cc(Nc3ccc4nc5ccc(I)cc5[n+](-c5ccccc5)c4c3)ccc1N2", "values": [
      {"measurement": "IC50", "setting": "Gβ1γ2 [1]; Table 8", "value": 2, "unit": "µM"},
      {"measurement": "IC50", "setting": "Gβ1γ2 [1]; read-out: ELISA, Table 19", "value": 2, "unit": "µM"},
      {"measurement": "IC50", "setting": "Gβ1γ2 [1]; [6]", "value": 2, "unit": "µM"},
      {"measurement": "IC50", "setting": "Gβ1γ2 [1]; read-out: IC50 in phage ELISA (SIGK competition)", "value": 2, "unit": "µM"},
      {"measurement": "PLCb2", "setting": "PLCβ2; Table 19, effector IC50", "value": "NE"},
      {"measurement": "effect on Gβ1γ2-dependent activation of PLCβ2", "setting": "PLCβ2", "value": "does not affect"},
      {"measurement": "PLCb3", "setting": "PLCβ3; Table 19, effector IC50", "value": "NE"},
      {"measurement": "effect on Gβ1γ2-dependent activation of PLCβ3", "setting": "PLCβ3; result in words", "value": "does not affect"},
      {"measurement": "IC50", "setting": "PI3Kγ", "value": 12000, "unit": "nM"}
    ]},
    {"smiles": "CCc1cc2c(c3ccc(C(=O)CBr)cc13)CCCC2", "values": [
      {"measurement": "IC50", "setting": "Gβ1γ2 [1]; Table 8", "value": 0.1, "unit": "µM"},
      {"measurement": "IC50", "setting": "Gβ1γ2 [1]; [6]", "value": 0.1, "unit": "µM"}
    ]},
    {"smiles": "O=C(O)C1CC23C(Cl)C(Cl)C(Cl)C(Cl)C2(CC1c1c2ccc(=O)c(O)c-2oc2c(O)c(O)ccc12)C3(Cl)Cl", "note": "(centres unmarked)", "values": [
      {"measurement": "effect on fMLP-dependent translocation of GFP-PHAkt to the membrane", "setting": "[2]", "value": "inhibited"},
      {"measurement": "effect on fMLP-induced Ca^2+ increase", "setting": "[3]", "value": "attenuated"},
      {"measurement": "effect on fMLP-induced activation of ERK1 and ERK2", "setting": "[4]", "value": "did not block"},
      {"measurement": "effect on fMLP-induced activation of ERK1 and ERK2", "setting": "[4]; listed as NSC158110", "value": "do not interfere"},
      {"measurement": "IC50", "setting": "Gβ1γ2 [5]", "value": 250, "unit": "nM"}
    ]},
    {"smiles": "CC1C2C=CC1C(c1c3ccc(=O)c(O)c-3oc3c(O)c(O)ccc13)C2C(=O)O", "note": "(single isomer, unassigned)", "values": [
      {"measurement": "IC50", "setting": "Gβ1γ2 [5]", "value": 700, "unit": "nM"}
    ]},
    {"smiles": "O=C(O)/C=C/c1c2ccc(=O)c(O)c-2oc2c(O)c(O)ccc12", "note": "[(E)-3-(4,5,6-trihydroxy-3-oxo-3H-xanthen-9-yl)acrylic acid]", "values": [
      {"measurement": "effect on Gβ1γ2-dependent activation of PLCβ2", "setting": "PLCβ2", "value": "appeared to block PLC-β2 activation more effectively than PLC-β3 activation"},
      {"measurement": "effect on fMLP-induced activation of ERK1 and ERK2", "setting": "[4]", "value": "do not interfere"},
      {"measurement": "IC50", "setting": "Gβ1γ2 [5]", "value": 200, "unit": "nM"}
    ]}
  ]
}
